Data as given in patent US9073974 (University of California, dated 2015).

Chains of the proteins cited; added tags and fusions are not shown. Residues count along the entry.
UniProt P06756, 31-1048, chain 1 of 2: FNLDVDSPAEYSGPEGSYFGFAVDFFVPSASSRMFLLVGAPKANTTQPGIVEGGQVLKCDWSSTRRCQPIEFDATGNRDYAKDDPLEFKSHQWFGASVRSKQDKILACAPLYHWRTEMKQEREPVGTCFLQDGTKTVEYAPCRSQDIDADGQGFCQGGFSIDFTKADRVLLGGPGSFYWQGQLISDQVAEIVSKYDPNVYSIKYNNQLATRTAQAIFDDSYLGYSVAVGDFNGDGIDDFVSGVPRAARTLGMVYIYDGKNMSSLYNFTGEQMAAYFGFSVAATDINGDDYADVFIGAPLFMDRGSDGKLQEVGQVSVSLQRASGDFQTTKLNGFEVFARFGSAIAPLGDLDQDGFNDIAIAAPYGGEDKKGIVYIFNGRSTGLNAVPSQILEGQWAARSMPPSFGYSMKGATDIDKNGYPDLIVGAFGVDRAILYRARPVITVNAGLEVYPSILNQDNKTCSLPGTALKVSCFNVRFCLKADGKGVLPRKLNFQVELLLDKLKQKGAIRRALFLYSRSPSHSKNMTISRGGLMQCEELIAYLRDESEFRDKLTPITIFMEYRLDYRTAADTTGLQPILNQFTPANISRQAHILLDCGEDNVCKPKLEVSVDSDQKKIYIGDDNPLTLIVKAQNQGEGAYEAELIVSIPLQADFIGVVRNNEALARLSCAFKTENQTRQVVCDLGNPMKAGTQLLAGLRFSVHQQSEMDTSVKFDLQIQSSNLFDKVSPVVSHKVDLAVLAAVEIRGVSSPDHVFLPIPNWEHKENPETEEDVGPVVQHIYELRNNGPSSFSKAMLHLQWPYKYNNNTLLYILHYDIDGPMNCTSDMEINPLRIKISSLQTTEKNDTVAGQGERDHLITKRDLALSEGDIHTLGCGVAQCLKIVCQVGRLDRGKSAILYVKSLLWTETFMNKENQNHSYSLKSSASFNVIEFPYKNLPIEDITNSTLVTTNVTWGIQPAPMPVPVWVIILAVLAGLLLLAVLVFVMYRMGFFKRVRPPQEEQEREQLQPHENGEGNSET
αvβ3 integrin, UniProt P05106, 27-788, chain 2 of 2: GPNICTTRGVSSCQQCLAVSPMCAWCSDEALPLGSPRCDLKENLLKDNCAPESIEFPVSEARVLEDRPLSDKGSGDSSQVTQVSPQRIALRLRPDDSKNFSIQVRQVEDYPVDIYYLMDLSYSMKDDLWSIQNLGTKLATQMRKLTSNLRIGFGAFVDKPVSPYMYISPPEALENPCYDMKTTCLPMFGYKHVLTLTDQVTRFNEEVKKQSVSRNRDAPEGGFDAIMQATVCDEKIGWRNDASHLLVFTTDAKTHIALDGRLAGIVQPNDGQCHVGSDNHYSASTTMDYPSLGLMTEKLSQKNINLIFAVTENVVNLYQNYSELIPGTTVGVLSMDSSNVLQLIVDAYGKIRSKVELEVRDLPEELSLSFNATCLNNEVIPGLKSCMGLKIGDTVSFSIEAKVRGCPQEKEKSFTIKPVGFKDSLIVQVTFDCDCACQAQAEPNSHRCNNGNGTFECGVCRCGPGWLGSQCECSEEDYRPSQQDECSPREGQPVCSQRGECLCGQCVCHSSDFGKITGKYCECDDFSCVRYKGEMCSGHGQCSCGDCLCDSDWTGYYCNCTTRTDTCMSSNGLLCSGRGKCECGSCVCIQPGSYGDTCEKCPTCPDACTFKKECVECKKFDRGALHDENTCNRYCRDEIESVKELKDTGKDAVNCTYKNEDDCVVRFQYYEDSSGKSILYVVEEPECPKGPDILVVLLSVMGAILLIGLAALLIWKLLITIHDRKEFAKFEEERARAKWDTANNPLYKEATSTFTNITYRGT

Biological target: T1, αvβ3 integrin (human, UniProt P06756 31-1048; P05106 27-788)
T1 construct: whole, on cells; Same entry used for αvβ3-K562, U-87 MG and A375M cells; also called αvβ3-K562; αvβ3 transfected K562 cells
Experiment: flow cytometry, competition with FITC-Echistatin on αvβ3-K562 cells

B1: cyclo (RGDyK)-Bio (peptide)
peptide: RGDYK
modifications: D-Tyr4; head-to-tail cyclic; Lys5 side chain joined through succinyl and one Ebes linker to Lys(biotin) amide
notes: made by the same procedure as the cyclo(RGDfK) conjugate; also called Biotinylated Cyclo(RGDyK)
**Q.** With B1 as the binder, how does the IC50 read?
**A.** The IC50 was 1350 nM.
